Drawing on article PMC10724293, “New ruthenium-xanthoxylin complex eliminates colorectal cancer stem cells by targeting the heat shock protein 90 chaperone” (Cell Death & Disease, 2023), this text covers reduced cell viability for one molecule.

The assay concerns CR02 (colorectal carcinoma). Kind of assay: Alamar blue viability of primary cancer cells. The format is cell-based, human. Particulars: primary CRC (second listed); 25 μg/ml (RXC 31.3 μM, DOX 46 μM); 96 h. Here is the method: The Alamar blue assay was used to determine cell viability as previously described. Cells were seeded into 96-well plates at a density of 7 × 10^3 cells per well for adherent cells or 3 × 10^4 cells per well for suspended cells. The drug was added to each well after 24 h of incubation for adherent cells or immediately for suspended cells and incubated for an additional 72 h. The positive control included DOX (Laboratorio IMA S.A.I.C., Buenos Aires, Argentina) or 5-fluorouracil (5-FU, Sigma-Aldrich Co.). Each well received 100 µM resazurin (Sigma-Aldrich Co. St. Louis, MO, United States) four (for cell lines) or 24 (for primary culture) h before the end of the incubation. A SpectraMax 190 Microplate Reader (Molecular Devices, Sunnyvale, CA, USA) was used to measure absorbance at 570 and 600 nm.
CR03 (metastatic cholangiocarcinoma) CR04 (malignant papillary mesothelioma)
Figure S1. The effect of RXC on primary cancer cells. Cells were exposed to 25
μg/mL of each compound (RXC = 31.3 μM, DOX = 46 μM), and cell viability was
measured after 96 h using the Alamar blue assay. The data are presented as the
mean ± S.E.M. of four replicates. * P < 0.05 compared to CTL by one-way ANOVA
followed by Dunnett's multiple comparisons test.
(also on this page, place not known: Cell (% control) Cell viability (% control) CTL RXC DOX RXC of DOX viability of CTL) […]

`COc1cccc2c1C(=O)c1c(O)c3c(c(O)c1C2=O)C[C@@](O)(C(=O)CO)C[C@@H]3O[C@H]1C[C@H](N)[C@H](O)[C@H](C)O1` [DOX, Doxorubicin] displayed a reduced cell viability of 36.2%.
